ChEMBL document CHEMBL4266040, “Structure-Based Engineering of Irreversible Inhibitors against Histone Lysine Demethylase KDM5A” (J Med Chem, 2018)

Chains of the proteins cited; added tags and fusions are not shown. Lines headed by an entry give the natural chain unless they say otherwise; changes in a name come on top.
UniProt P29375: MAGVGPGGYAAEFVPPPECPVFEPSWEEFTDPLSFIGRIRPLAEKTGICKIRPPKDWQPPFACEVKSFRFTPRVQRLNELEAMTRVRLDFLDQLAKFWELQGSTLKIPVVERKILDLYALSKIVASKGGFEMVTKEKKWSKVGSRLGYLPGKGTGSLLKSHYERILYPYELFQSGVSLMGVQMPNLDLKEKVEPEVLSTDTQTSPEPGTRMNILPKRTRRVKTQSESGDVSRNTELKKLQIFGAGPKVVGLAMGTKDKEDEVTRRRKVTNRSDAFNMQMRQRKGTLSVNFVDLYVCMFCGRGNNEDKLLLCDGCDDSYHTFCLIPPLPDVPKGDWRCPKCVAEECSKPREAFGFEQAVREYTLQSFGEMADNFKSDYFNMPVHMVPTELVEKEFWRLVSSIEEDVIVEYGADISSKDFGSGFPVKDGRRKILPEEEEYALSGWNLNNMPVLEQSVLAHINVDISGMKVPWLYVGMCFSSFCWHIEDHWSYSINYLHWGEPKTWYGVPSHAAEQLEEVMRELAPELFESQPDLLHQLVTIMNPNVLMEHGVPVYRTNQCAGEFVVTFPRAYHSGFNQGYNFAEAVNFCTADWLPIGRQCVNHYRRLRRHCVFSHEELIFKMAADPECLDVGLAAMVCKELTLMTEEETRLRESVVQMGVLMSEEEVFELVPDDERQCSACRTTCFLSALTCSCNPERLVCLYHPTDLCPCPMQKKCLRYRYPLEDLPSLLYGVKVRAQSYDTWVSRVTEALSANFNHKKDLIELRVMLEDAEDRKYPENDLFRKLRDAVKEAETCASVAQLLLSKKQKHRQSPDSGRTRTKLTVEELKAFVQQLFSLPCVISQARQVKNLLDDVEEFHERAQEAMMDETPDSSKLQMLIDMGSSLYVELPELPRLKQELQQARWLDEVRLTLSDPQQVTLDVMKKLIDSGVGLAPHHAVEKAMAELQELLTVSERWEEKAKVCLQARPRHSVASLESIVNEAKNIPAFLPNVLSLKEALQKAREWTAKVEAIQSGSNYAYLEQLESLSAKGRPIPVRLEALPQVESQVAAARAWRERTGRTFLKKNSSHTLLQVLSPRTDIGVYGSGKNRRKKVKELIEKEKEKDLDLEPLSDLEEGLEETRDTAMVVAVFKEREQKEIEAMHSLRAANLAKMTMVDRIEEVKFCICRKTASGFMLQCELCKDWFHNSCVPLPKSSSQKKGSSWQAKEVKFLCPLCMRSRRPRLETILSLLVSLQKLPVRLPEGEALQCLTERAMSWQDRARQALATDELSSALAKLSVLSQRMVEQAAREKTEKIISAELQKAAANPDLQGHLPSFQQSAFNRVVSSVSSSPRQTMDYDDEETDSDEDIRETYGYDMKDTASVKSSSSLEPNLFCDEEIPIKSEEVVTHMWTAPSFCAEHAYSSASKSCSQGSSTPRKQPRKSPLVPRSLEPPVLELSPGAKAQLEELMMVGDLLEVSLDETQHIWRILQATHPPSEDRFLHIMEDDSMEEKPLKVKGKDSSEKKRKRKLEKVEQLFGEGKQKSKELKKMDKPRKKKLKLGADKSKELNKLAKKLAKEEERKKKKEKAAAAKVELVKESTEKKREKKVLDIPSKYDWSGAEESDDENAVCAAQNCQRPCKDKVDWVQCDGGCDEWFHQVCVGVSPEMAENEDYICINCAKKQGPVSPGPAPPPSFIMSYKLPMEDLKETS

Tests used:
Type in all cases: cell-based
[1] = biological target: T1, Lysine-specific demethylase 5A (Homo sapiens, UniProt P29375); experiment: Inhibition of KDM5A in human MCF7 cells assessed as increase in H3K4me3 levels at 1 uM after 48 hrs by Western blot analysis relative to control
[2] = test system: MCF7; experiment: Inhibition of KDM5 human MCF7 cells assessed as up-regulation of MT1F mRNA expression at 1 uM after 48 hrs by RT-qPCR assay
[3] = test system: MCF7; experiment: Inhibition of KDM5 human MCF7 cells assessed as up-regulation of MT1H mRNA expression at 1 uM after 48 hrs by RT-qPCR assay
[4] = test system: MCF7; experiment: Inhibition of KDM5 human MCF7 cells assessed as up-regulation of STING mRNA expression at 1 uM after 48 hrs by RT-qPCR assay relative to control
[5] = biological target: T1, Lysine-specific demethylase 5A; experiment: Inhibition of KDM5A in human MCF7 cells assessed as increase in H3K4me3 levels at 1 uM after 30 hrs by Western blot analysis relative to control
[6] = test system: MCF7; experiment: Inhibition of KDM5 in human MCF7 cells assessed as up-regulation of STING protein expression at 1 uM after 48 hrs by Western blot analysis relative to control

`CCOC(=O)c1ccnc(CNCC(=O)N(CC)CCN(C)C)c1` was tested, and the fold change (FC) [1] was over 5, the fold change (FC) [2] was under 6 and the fold change (FC) [3] was under 6. For the same compound, the fold change (FC) [4] was under 6, the fold change (FC) [5] was over 5 and the fold change (FC) [6] was over 10.
